Amino acid sequences for entries named in this document (tags omitted). Residues count along the entry.
UniProt Q96GD4, whole entry: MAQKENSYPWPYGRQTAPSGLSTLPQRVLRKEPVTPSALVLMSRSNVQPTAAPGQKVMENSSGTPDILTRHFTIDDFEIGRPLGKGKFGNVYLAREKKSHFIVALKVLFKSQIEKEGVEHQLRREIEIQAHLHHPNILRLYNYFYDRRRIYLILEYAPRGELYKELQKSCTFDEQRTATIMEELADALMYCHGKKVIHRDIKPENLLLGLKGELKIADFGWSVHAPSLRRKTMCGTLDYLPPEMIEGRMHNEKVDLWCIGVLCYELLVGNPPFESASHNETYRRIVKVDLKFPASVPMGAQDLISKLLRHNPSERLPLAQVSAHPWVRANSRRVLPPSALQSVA
UniProt O14965, whole entry: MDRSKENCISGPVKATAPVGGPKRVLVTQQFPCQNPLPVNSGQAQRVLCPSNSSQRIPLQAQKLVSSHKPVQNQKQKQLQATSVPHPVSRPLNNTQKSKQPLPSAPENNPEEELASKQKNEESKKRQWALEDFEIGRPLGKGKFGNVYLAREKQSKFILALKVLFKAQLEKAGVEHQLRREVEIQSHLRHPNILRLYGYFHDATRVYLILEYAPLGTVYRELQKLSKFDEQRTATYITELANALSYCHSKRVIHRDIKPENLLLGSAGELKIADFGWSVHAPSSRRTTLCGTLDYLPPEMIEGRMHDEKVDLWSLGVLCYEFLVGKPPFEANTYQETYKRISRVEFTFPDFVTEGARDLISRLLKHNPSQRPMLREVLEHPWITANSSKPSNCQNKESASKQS
UniProt Q9UHD2, whole entry: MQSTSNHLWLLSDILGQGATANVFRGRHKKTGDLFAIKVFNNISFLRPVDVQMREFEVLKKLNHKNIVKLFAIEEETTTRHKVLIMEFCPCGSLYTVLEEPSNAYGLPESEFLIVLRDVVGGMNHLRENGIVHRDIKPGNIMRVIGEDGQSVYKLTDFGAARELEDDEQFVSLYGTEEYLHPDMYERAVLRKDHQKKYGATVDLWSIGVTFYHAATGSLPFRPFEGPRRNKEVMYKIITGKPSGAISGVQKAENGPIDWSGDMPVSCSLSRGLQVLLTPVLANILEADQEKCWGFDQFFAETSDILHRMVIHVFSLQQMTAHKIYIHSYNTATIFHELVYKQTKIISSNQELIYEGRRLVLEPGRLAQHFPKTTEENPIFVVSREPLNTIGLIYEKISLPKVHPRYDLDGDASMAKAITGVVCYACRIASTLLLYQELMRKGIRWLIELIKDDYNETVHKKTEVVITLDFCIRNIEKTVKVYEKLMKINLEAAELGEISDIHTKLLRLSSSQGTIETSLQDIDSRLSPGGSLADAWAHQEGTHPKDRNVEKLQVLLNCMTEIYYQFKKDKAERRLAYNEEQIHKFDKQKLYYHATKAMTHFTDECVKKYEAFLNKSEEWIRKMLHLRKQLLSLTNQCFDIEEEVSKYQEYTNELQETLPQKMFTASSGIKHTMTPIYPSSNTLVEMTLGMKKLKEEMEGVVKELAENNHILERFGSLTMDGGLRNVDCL
UniProt Q9H2X6, whole entry: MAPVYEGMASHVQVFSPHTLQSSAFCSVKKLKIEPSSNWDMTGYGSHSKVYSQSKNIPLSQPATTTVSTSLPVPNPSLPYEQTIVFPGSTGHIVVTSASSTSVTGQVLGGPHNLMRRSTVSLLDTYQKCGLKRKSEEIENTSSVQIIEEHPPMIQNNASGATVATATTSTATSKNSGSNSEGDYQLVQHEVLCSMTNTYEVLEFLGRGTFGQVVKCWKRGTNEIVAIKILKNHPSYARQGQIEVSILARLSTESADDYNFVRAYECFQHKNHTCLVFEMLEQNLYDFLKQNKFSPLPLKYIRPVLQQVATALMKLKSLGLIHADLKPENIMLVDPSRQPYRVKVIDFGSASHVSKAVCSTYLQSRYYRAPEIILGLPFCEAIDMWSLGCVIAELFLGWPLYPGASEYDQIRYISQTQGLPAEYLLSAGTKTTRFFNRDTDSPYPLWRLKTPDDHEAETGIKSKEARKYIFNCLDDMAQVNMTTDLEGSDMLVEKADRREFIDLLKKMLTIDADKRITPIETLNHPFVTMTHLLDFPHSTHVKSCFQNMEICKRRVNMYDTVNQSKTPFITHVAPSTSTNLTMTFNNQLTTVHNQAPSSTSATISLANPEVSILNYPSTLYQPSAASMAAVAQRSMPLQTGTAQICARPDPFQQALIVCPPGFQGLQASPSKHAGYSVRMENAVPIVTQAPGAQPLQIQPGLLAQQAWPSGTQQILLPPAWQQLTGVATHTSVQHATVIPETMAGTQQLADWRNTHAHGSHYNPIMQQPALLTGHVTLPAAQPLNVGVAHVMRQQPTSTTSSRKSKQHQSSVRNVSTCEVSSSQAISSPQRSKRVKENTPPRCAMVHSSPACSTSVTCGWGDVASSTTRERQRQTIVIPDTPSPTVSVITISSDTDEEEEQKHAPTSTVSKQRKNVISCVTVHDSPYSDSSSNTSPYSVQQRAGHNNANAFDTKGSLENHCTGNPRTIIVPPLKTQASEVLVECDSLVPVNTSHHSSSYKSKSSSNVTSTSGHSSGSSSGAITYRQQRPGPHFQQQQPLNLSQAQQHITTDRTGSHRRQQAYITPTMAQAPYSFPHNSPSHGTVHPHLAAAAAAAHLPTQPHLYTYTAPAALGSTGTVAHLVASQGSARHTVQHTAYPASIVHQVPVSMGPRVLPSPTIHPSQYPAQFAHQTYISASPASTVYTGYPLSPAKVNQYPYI
UniProt Q9HBH9, whole entry: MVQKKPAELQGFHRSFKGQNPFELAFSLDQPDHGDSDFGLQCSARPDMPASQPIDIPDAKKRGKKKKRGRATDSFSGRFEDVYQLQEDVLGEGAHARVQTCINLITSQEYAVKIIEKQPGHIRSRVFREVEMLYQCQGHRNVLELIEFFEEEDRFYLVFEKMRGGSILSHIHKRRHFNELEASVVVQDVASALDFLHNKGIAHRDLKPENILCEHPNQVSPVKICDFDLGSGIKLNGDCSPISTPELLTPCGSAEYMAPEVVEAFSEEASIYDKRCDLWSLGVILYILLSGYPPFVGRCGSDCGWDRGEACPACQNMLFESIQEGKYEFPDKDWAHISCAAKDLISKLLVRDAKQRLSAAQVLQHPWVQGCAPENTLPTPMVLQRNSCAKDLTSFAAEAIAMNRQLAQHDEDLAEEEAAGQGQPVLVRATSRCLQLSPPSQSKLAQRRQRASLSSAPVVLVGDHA
UniProt P54760, 16-987 limits assumed: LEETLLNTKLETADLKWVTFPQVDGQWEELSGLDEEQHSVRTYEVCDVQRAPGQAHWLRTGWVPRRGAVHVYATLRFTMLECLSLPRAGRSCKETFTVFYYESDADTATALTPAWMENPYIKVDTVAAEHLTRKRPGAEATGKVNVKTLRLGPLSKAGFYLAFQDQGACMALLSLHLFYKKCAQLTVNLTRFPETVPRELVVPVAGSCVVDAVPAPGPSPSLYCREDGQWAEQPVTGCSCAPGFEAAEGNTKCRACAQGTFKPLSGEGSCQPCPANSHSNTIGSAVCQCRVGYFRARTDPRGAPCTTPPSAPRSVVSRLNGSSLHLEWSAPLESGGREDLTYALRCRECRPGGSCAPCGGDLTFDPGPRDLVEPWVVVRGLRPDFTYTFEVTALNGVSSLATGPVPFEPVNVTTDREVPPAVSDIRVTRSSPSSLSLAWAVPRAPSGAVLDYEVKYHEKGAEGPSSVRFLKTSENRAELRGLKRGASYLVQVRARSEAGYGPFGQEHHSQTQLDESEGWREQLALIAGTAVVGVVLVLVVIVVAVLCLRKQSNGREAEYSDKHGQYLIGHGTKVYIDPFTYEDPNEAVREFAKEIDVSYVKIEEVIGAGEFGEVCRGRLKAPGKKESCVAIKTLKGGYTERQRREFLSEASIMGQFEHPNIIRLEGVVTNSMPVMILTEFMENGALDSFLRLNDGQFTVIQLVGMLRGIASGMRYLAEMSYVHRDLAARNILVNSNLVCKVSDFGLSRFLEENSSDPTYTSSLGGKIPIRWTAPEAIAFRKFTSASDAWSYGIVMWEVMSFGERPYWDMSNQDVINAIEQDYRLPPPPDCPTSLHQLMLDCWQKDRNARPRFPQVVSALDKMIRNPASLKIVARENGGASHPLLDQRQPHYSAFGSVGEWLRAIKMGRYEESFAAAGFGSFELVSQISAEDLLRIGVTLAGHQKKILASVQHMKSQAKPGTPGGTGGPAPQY
UniProt Q12851, whole entry: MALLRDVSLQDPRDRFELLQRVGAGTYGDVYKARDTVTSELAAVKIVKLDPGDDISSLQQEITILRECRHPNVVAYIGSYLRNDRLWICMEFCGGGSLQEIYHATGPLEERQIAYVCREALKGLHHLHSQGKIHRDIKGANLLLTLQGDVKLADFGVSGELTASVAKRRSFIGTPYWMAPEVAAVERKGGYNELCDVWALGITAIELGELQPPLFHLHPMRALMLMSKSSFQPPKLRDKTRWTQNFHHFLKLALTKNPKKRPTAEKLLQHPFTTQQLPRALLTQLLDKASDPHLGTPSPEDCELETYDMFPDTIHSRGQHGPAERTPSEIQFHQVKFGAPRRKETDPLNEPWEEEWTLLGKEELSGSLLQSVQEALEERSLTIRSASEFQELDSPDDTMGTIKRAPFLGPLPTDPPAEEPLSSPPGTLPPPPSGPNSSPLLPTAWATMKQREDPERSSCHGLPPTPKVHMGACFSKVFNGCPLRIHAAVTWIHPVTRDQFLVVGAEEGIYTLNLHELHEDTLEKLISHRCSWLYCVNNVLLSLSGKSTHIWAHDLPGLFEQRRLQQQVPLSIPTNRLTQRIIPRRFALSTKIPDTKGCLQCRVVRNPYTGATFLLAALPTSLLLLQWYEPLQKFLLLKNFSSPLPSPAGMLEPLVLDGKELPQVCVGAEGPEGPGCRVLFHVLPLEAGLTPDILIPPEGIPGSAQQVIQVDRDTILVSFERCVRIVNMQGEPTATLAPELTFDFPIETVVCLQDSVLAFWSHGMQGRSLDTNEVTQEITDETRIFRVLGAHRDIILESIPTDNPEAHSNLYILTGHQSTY
UniProt Q15418, whole entry: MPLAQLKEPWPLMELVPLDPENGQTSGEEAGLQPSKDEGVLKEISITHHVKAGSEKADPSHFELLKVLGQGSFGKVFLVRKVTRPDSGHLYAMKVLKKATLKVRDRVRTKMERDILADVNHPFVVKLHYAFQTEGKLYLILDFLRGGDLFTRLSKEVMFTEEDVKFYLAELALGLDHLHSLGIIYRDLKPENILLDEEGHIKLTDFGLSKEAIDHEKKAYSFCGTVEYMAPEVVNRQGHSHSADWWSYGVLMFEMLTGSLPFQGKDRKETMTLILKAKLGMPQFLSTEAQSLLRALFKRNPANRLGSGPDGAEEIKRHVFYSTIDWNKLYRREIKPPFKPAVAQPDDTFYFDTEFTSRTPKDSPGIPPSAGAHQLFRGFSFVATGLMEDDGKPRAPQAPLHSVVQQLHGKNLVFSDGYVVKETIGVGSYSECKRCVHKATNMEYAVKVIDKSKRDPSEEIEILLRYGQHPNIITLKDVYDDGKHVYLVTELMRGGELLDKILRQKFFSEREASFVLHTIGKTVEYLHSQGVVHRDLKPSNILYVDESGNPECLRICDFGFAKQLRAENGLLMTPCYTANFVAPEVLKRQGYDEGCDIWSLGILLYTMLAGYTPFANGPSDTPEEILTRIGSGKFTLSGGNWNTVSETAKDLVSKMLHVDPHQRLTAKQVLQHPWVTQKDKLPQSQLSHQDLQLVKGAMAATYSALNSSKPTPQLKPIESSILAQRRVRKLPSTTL
UniProt Q9NQU5, whole entry: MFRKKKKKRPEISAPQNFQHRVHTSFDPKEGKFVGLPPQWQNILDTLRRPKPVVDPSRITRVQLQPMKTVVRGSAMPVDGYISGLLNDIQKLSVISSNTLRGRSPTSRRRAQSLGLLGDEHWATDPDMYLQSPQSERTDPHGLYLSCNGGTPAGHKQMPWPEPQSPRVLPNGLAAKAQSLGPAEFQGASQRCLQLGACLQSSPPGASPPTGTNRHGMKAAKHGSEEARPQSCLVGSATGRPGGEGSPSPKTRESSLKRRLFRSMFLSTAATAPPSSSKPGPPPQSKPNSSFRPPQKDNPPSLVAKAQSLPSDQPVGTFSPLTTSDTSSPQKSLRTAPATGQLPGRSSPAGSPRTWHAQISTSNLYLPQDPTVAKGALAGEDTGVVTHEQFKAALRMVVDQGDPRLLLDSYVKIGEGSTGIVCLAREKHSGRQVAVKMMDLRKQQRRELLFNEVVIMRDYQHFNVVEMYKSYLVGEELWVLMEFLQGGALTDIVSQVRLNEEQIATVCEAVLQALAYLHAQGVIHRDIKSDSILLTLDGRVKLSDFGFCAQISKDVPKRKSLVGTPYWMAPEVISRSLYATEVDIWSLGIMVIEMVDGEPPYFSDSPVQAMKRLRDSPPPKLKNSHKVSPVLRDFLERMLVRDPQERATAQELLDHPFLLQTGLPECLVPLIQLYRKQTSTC

According to publication PMC4577729, “7-(Pyrazol-4-yl)-3H-imidazo[4,5-b]pyridine-based derivatives for kinase inhibition: Co-crystallisation studies with Aurora-A reveal distinct differences in the orientation of the pyrazole N1-substituent” (Bioorganic & Medicinal Chemistry Letters, 2015):

Tests used:
Kinetic solubility = settings: phosphate buffer, pH = 6.8
[1] = Mouse plasma protein binding
SmMLCK = SmMLCK (Homo sapiens, UniProt Q15746); experiment: Kinase selectivity profiling; settings: 1 µM, assay duplicates
Aurora B [2] = target: T1, Aurora B (Homo sapiens, UniProt Q96GD4); experiment: Aurora-B microfluidic kinase assay; settings: read-out: Aurora-B IC50; biochemical; mean of two determinations or mean ±SD for n > 2
Aurora A [3] = target: T2, Aurora A (Homo sapiens, UniProt O14965); experiment: Aurora-A microfluidic kinase assay; settings: read-out: Aurora-A IC50; biochemical; mean of two determinations or mean ±SD for n > 2
Aurora A [4] = target: T2, Aurora A; experiment: Aurora-A autophosphorylation at T288 in HeLa cells; settings: read-out: p-T288 IC50 (Aurora-A autophosphorylation)
[5] = In vivo mouse pharmacokinetic profiling
DYRK1A = DYRK1A (Homo sapiens, UniProt Q13627); experiment: Kinase selectivity profiling; type: biochemical; settings: 1 µM, assay duplicates
Method: (§1) [20] Kinase selectivity profiling for compounds 7a, 7d, 14d and 14g was carried out at the International Centre for Protein Kinase Profiling, Division of Signal Transduction Therapy, University of Dundee.
(§2) Table S1: Kinase selectivity profiling of compounds 7a and 7d in a 102-kinase panel screened at a concentration of 1 µM.
(§3) Table S2: Kinase selectivity profiling of compounds 14d and 14g in a 105-kinase panel screened at a concentration of 1 µM.

ROCK 2 = ROCK 2 (Homo sapiens, UniProt O75116); experiment: Kinase selectivity profiling; type: biochemical; settings: 1 µM, assay duplicates
Method: as §1, §2, §3

TBK1 = TBK1 (Homo sapiens, UniProt Q9UHD2); experiment: Kinase selectivity profiling; type: biochemical; settings: 1 µM, assay duplicates
Method: as §1, §2, §3

HIPK2 = HIPK2 (Homo sapiens, UniProt Q9H2X6); experiment: Kinase selectivity profiling; type: biochemical; settings: 1 µM, assay duplicates
Method: as §1, §2, §3

MNK2 = MNK2 (Homo sapiens, UniProt Q9HBH9); experiment: Kinase selectivity profiling; type: biochemical; settings: 1 µM, assay duplicates
Method: as §1, §2, §3

PRAK = PRAK (Homo sapiens, UniProt Q8IW41); experiment: Kinase selectivity profiling; type: biochemical; settings: 1 µM, assay duplicates
Method: as §1, §2, §3

CDK2-Cyclin A = CDK2-Cyclin A (Homo sapiens, UniProt P24941); experiment: Kinase selectivity profiling; type: biochemical; settings: 1 µM, assay duplicates
Method: as §1, §2, §3

p38g MAPK = p38g MAPK (Homo sapiens, UniProt P53778); experiment: Kinase selectivity profiling; type: biochemical; settings: 1 µM, assay duplicates
Method: as §1, §2, §3

PHK = PHK (Homo sapiens, UniProt Q16816); experiment: Kinase selectivity profiling; type: biochemical; settings: 1 µM, assay duplicates
Method: as §1, §2, §3

BRSK1 = BRSK1 (Homo sapiens, UniProt Q8TDC3); experiment: Kinase selectivity profiling; type: biochemical; settings: 1 µM, assay duplicates
Method: as §1, §2, §3

EPH-B4 = EPH-B4 (Homo sapiens, UniProt P54760); experiment: Kinase selectivity profiling; type: biochemical; settings: 1 µM, assay duplicates
Method: as §1, §2, §3

[6] = Protein binding in microsomal incubations (MLM)
Aurora B [7] = target: T1, Aurora B; experiment: Histone H3 phosphorylation at S10 in HeLa cells; settings: read-out: p-HH3 IC50 (histone H3 phosphorylation at S10)
[8] = Protein binding in microsomal incubations (HLM)
CLK2 = CLK2 (Homo sapiens, UniProt P49760); experiment: Kinase selectivity profiling; settings: 1 µM, assay duplicates
EPH-B2 = EPH-B2 (Homo sapiens, UniProt P29323); experiment: Kinase selectivity profiling; settings: 1 µM, assay duplicates
DAPK1 = DAPK1 (Homo sapiens, UniProt P53355); experiment: Kinase selectivity profiling; settings: 1 µM, assay duplicates
[9] = Mouse liver microsomal stability; type: in vitro ADME; settings: percentage of compound metabolised after a 30 min incubation, mouse liver microsomes
[10] = Human liver microsomal stability; type: in vitro ADME; settings: percentage of compound metabolised after a 30 min incubation, human liver microsomes
GCK = GCK (Homo sapiens, UniProt Q12851); experiment: Kinase selectivity profiling; type: biochemical; settings: 1 µM, assay duplicates
IRR = IRR (Homo sapiens, UniProt P14616); experiment: Kinase selectivity profiling; type: biochemical; settings: 1 µM, assay duplicates
AMPK = experiment: Kinase selectivity profiling; type: biochemical; settings: 1 µM, assay duplicates
TAK1 = TAK1 (Homo sapiens, UniProt O43318); experiment: Kinase selectivity profiling; type: biochemical; settings: 1 µM, assay duplicates
RSK1 = RSK1 (Homo sapiens, UniProt Q15418); experiment: Kinase selectivity profiling; type: biochemical; settings: 1 µM, assay duplicates
BTK = BTK (Homo sapiens, UniProt Q06187); experiment: Kinase selectivity profiling; type: biochemical; settings: 1 µM, assay duplicates
PAK6 = PAK6 (Homo sapiens, UniProt Q9NQU5); experiment: Kinase selectivity profiling; type: biochemical; settings: 1 µM, assay duplicates
JNK1 = JNK1 (Homo sapiens, UniProt P45983); experiment: Kinase selectivity profiling; type: biochemical; settings: 1 µM, assay duplicates

SMILES	SmMLCK % activity remaining (SmMLCK) [%]	IC50 (Aurora B [2]) [nM]	IC50 (Aurora A [3]) [nM]	DYRK1A % activity remaining (DYRK1A) [%]	ROCK 2 % activity remaining (ROCK 2) [%]	TBK1 % activity remaining (TBK1) [%]	HIPK2 % activity remaining (HIPK2) [%]	MNK2 % activity remaining (MNK2) [%]	PRAK % activity remaining (PRAK) [%]	CDK2-Cyclin A % activity remaining (CDK2-Cyclin A) [%]	p38g MAPK % activity remaining (p38g MAPK) [%]	PHK % activity remaining (PHK) [%]	BRSK1 % activity remaining (BRSK1) [%]	EPH-B4 % activity remaining (EPH-B4) [%]	further results
Cc1nn(C)cc1-c1nc2c(-c3cnn(Cc4ccc(Cl)cc4)c3)c(Cl)cnc2[nH]1	49	271	190	8	57	46	6	35	89	3	55	68	35	94	kinetic solubility (Kinetic solubility): < 0.1 µg/mL; mouse plasma protein binding [1]: > 99.9%; IC50 (Aurora A [4]): 40 nM; oral bioavailability [5]: 16%; percentage unbound in MLM [6]: 0.50%; IC50 (Aurora B [7]): 330 nM; percentage unbound in HLM [8]: 0.50%
CNCc1cccc(Cn2cc(-c3c(Cl)cnc4[nH]c(-c5cn(C)nc5C)nc34)cn2)c1	68	32	18	14	32	19	10	51	110	2	48	19	56	74	CLK2 % activity remaining (CLK2): 3%; EPH-B2 % activity remaining (EPH-B2): 70%; DAPK1 % activity remaining (DAPK1): 12%; MLM % met/30 min [9]: 53%; HLM % met/30 min [10]: 38%; GCK % activity remaining (GCK): 51%; IRR % activity remaining (IRR): 23%; AMPK % activity remaining (AMPK): 18%; TAK1 % activity remaining (TAK1): 24%; RSK1 % activity remaining (RSK1): 20%; BTK % activity remaining (BTK): 13%; PAK6 % activity remaining (PAK6): 65%; JNK1 % activity remaining (JNK1): 26%
